Binding of CDR-mutated scFvs to a peptide of the spike HR2 region

All variants were tested on one target, the spike HR2 peptide PDVDLGDISGINAS (SARS-CoV-2).

Parent: Ab-95, a human scFv built as VH, three GGGGS repeats, VL. Only the CDRs of the light chain vary.
VH: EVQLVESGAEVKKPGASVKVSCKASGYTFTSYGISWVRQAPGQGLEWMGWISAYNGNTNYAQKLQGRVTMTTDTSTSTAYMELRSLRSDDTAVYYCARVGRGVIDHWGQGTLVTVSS
VL: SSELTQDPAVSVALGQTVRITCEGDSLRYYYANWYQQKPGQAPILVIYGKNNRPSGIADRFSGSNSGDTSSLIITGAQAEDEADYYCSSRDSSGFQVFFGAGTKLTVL

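Library AAYL52 holds single substitutions and randomly drawn double and triple substitutions in the CDRs. The assay is AlphaSeq: two haploid yeast populations carry antibody and antigen on their surface. The frequency of each diploid, read from paired DNA barcodes, reflects how well the two displayed proteins bind. Each replicate has its own calibration line, from reference interactions of the BCL2 family. The assay was run in three technical replicates.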

Substitutions are numbered in sequence along the VL above, starting at 1 (not Kabat). Values are log10 of the apparent Kd in nM; lower means stronger binding. Replicates are averaged; those with no signal do not enter the mean. "not detected" marks a missing value. The strain was present, yet no cells mated with the target were sequenced in any replicate, which points to weak or no binding. As a blank, each scFv also met three strains without target: over library AAYL52, 28% of these pairings were detected, typically at 3.91 and seldom below 2.90.

changes	mean, log10 nM	seen in
N33I/N51Y/S93W	5.18	2/3
R28E/S55Q/F98R	1.85	3/3
S26G/N51D/P54N	3.04	3/3
Y31M/N52E/R53H	1.91	3/3
G49E/D91I/G94P	3.37	2/3
E23R/K50G	1.60	3/3
P54E/S55R/S92I	2.84	3/3
Y29Q/N52F/S92G	2.49	3/3
D25K/K50N/S55I	2.44	3/3
E23D/G49N/D91A	3.91	3/3
Y30I/G49A/G94R	3.93	2/3
E23T/L27H/K50N	2.77	3/3
E23M/G49N/S93N	3.35	3/3
G49H/D91M/S92N	not detected	0/3
D25T/Y29S/G94H	4.19	2/3
Y29R/F98T	1.92	3/3
K50P/S89H	3.24	1/3
E23P/R28Y/V97E	4.56	3/3
G24N/Y29R/N33Q	5.28	1/3
D91W/F95S/V97M	not detected	0/3
S26T/R28D/P54V	4.16	2/3
G24S/L27R	4.16	1/3
G49T/N52W/S88N	4.01	1/3
G24F/D25W/Y29C	5.35	1/3
R28F/A32Y	3.06	3/3
G24Y/S88E/F95A	2.98	3/3
E23H/F95N/Q96S	2.44	3/3
Y31W/K50G	2.76	3/3
D25M/Y29I/R53S	3.40	2/3
L27P/Y30I/R90A	3.81	1/3
G49R/S55G/Q96G	4.41	2/3
G49F/N52A/V97R	not detected	0/3
N33F/R90M	4.89	2/3
G24N/Y30F/V97W	3.64	2/3

Second part, the sequence after the result:

mean, log10 nM	seen in	changes
3.84	3/3	D25V/P54A/G94R
4.11	2/3	Y31K/N52G/R90D
not detected	0/3	S93L/V97E/F98L
3.05	3/3	D25H/N33C/S88C
4.11	1/3	N52L/R53I/Q96T
3.71	1/3	Y30H/F95D/F98G
3.13	3/3	R28S/K50R/G94W
2.06	3/3	R28E/Y30H/S93W
not detected	0/3	L27S/R53M/V97R
5.54	1/3	D25P/S93L/G94T
2.55	3/3	Y29H/V97Q/F98Y
2.43	3/3	Y30H/N51R/N52M
2.94	3/3	G24S/G94I/V97R
2.18	3/3	E23Q/Y29R/V97H
3.67	2/3	N33D/G49K/N52R
1.02	3/3	Y30N/S89I/F95N
1.76	3/3	Y30E/A32C
3.33	1/3	G94K/Q96E/F98G
not detected	0/3	L27Y/N52W/S55K
4.24	1/3	L27I/S89M/S92L
3.28	1/3	Y29I/S55P/S92M
2.43	3/3	G24H/Y31L/N51A
not detected	0/3	S88N/S89R/G94A
3.43	1/3	Y29H/Y31I/S93C
3.07	1/3	A32L/Q96F
3.15	3/3	Y30F/R90T/G94V
5.43	2/3	Y30T/A32N/N52P
2.98	3/3	G24W/L27N/Y31R
5.32	1/3	N33E/S89M/F98V
3.29	3/3	R28K/K50S/N52I
3.30	3/3	D25R/R53N/F95S
3.74	2/3	R28D/G49T/S92C
4.35	2/3	N33H/P54V/R90M
1.03	3/3	Y30Q/K50Q/S93R

Extract of 9 entries:

{"changes": "D25V/P54A/G94R", "mean, log10 nM": "3.84", "seen in": "3/3"}
{"changes": "D25R/R53N/F95S", "mean, log10 nM": "3.30", "seen in": "3/3"}
{"changes": "R28S/K50R/G94W", "mean, log10 nM": "3.13", "seen in": "3/3"}
{"changes": "N33F/R90M", "mean, log10 nM": "4.89", "seen in": "2/3"}
{"changes": "G49F/N52A/V97R", "mean, log10 nM": "not detected", "seen in": "0/3"}
{"changes": "R28E/S55Q/F98R", "mean, log10 nM": "1.85", "seen in": "3/3"}
{"changes": "G24N/Y29R/N33Q", "mean, log10 nM": "5.28", "seen in": "1/3"}
{"changes": "L27P/Y30I/R90A", "mean, log10 nM": "3.81", "seen in": "1/3"}
{"changes": "G49T/N52W/S88N", "mean, log10 nM": "4.01", "seen in": "1/3"}

Reference: Engelhart et al. 2022, doi:10.1038/s41597-022-01779-4. File: FLAb, binding data.